Measured values: article PMC3045619 (Nucleic Acids Research, 2010)
Residue numbers refer to the chain shown, from its start. In names and notes the source's numbering stands.

T1: single-stranded DNA-binding protein (SSB) of E. coli, wild-type (E. coli, UniProt P0AGE0 1-178)
T1 sequence: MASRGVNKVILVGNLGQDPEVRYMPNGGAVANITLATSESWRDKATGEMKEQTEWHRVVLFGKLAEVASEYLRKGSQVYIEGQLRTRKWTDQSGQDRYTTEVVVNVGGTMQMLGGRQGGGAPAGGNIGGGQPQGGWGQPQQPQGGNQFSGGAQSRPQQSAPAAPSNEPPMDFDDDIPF

B1: χ subunit of DNA polymerase III of E. coli, wild-type (natural protein)
chain: MKNATFYLLDNDTTVDGLSAVEQLVCEIAAERWRSGKRVLIACEDEKQAYRLDEALWARPAESFVPHNLAGEGPRGGAPVEIAWPQKRSSSRRDILISLRTSFADFATAFTEVVDFVPYEDSLKQLARERYKAYRVAGFNLNTATWK
B2: χ K132M (natural protein)
chain: B1 chain with K132M
B3: χ K124A (natural protein)
chain: B1 chain with K124A
B4: χ K124M (natural protein)
chain: B1 chain with K124M
B5: χ Y119A (natural protein)
chain: B1 chain with Y119A
B6: χ Y131A (natural protein)
chain: B1 chain with Y131A
B7: χ K132A (natural protein)
chain: B1 chain with K132A

target: T1, single-stranded DNA-binding protein …; experiment: AUC

Which Ka does the source give for B1 here?
The Ka was 290000 M⁻¹.

How did the Ka turn out when B2 was run?
Its Ka is 210000 M⁻¹.

How did the Ka turn out when B3 was run?
Its Ka is 21000 M⁻¹.

With B4 as the binder, how does the Ka read?
The Ka was 60000 M⁻¹.

Which Ka does the source give for B5 here?
The Ka was 340000 M⁻¹.

With B6 as the binder, how does the Ka read?
The Ka was 48000 M⁻¹.

B7 was tested. Which Ka did it give?
Its Ka is 90000 M⁻¹.
